Assay results as given in patent US20230271965A1, “BICYCLIC HETEROARENES AND METHODS OF THEIR USE” (Kineta, Inc., priority 2020, published 2023).

By UniProt entry, the sequences of proteins in these tests, tags left out.
UniProt Q9Y2I7, whole entry S696N/L932S/Q995L/T998S/S1033A/Q1183K: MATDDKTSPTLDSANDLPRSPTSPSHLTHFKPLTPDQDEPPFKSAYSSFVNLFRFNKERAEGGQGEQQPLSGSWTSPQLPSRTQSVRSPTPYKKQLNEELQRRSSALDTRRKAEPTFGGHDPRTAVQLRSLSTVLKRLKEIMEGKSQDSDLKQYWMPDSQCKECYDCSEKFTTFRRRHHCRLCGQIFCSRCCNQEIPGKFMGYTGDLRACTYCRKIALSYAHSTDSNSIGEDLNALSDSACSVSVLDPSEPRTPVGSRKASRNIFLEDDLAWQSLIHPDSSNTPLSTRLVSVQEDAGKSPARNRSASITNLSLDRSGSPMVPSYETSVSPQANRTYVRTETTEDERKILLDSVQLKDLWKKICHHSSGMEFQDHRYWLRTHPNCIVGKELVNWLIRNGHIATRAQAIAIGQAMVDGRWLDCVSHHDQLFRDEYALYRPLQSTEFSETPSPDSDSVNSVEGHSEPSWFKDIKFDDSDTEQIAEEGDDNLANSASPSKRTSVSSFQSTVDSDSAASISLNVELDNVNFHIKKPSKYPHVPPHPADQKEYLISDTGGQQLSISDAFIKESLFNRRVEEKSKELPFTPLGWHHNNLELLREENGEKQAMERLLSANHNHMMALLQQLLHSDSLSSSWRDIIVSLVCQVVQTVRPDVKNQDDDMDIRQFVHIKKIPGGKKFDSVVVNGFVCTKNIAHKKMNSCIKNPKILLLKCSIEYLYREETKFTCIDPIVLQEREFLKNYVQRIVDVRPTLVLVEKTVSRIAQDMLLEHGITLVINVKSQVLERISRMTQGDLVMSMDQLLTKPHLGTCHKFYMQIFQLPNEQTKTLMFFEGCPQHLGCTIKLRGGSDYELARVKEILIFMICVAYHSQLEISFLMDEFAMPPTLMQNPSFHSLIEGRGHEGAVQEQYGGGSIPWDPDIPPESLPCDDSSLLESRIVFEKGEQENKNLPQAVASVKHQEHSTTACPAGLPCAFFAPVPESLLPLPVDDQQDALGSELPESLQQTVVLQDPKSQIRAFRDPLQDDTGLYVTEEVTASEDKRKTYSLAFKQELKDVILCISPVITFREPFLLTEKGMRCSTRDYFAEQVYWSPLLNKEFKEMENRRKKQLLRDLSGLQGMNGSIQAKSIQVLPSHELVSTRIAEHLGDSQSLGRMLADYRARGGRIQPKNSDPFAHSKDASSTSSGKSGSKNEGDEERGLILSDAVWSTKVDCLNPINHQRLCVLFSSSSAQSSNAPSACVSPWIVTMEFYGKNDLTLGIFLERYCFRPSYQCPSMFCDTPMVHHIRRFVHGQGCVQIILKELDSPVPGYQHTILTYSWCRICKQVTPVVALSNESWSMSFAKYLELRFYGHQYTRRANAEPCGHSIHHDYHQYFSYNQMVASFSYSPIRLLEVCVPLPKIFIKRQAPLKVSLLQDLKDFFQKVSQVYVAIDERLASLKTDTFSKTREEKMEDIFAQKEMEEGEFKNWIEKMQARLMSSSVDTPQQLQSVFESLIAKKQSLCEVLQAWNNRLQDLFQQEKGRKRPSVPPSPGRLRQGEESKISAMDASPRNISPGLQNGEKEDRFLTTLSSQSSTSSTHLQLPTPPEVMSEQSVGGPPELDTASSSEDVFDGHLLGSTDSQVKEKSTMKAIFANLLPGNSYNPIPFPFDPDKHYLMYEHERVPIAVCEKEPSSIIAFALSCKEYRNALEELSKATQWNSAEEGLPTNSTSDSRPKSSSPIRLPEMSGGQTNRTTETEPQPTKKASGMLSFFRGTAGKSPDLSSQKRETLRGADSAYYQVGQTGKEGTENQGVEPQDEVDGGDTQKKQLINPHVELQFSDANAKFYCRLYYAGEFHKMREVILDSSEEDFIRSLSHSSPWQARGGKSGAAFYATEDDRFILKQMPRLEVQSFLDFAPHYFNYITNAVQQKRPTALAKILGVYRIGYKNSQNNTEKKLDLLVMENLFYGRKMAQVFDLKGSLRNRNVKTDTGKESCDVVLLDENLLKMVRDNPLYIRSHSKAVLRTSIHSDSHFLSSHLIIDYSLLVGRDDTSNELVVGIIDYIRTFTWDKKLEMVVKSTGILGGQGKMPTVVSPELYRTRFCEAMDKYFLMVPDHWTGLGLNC

Target: full-length human PIKFYVE (GST-PIKFYVE) (Homo sapiens, UniProt Q9Y2I7, L932S/Q1183K/Q995L/S1033A/S696N/T998S)
Assay: PIKfyve biochemical assay (ADP-Glo Kinase assay, Carna Biosciences)
Conditions: read-out: hPIKfyve IC50

- IC50: 0.1 to 1 µM
SMILES: c1ccc(N2CCc3c(COc4cccnc4)nc(N4CCOCC4)nc32)cc1
